How the values were obtained:
HTR2A = experiment: Gene expression in blood (quantitative real-time PCR); format: in vivo, human; conditions: end of the two-week pretreatment period, compared with placebo pretreatment
SLC6A4 = experiment: as above; format: in vivo, human; conditions: end of the two-week pretreatment period, compared with placebo pretreatment

CN(C)CCC[C@@]1(c2ccc(F)cc2)OCc2cc(C#N)ccc21 [Escitalopram, escitalopram]
expression of the HRT2A gene (HTR2A): did not alter
expression of the SLC6A4 gene (SLC6A4): did not alter

Source: US11801256B2, “Antidepressant-psilocybin co-treatment to assist psychotherapy” (Universitätsspital Basel, priority 2021, dated 2023)
